Measurements taken from patent US20230109708A1, “Cellular Uptake” (Axcess (UK) Ltd, priority 2020, published 2023).

Legend:
[1] = system: Caco-2 cells; experiment: FITC-albumin uptake after chlorpromazine, cells in suspension, plate reader (Example 11); assay type: cell-based; conditions: chlorpromazine at both high and low concentrations, all chenodeoxycholate concentrations
Procedure: 0.4 ml suspension was dispensed into each of eleven 1.5 ml plastic Eppendorf vials, and 40 ul of medium (without FBS) containing chlorpromazine at different concentrations was added to each vial, followed by incubation at 37° C. for 20 minutes.

[2] = system: Caco-2 cells; experiment: FITC-albumin uptake after chlorpromazine, adherent cells, plate reader (Example 10); assay type: cell-based; conditions: cells adherent to wells; chlorpromazine at both high and low concentrations; all chenodeoxycholate concentrations

For `CN(C)CCCN1c2ccccc2Sc2ccc(Cl)cc21` [Chlorpromazine, chlorpromazine], the “effect on uptake of FITC-BSA stimulated by the bile salt” value [1] was “inhibits uptake” and the “effect on uptake of FITC-BSA stimulated by the bile salt” value [2] was “inhibits uptake”.
